This is an account of results in ChEMBL document CHEMBL1153804, “Optimization of a series of quinazolinone-derived antagonists of CXCR3” (Bioorg Med Chem Lett, 2009).

As a reminder, the IC50 is the point on the concentration scale where inhibition reaches its midpoint.

The test can be described thus: Antagonist activity against human CXCR3 expressed in human PBMC assessed as inhibition of cell migration in response to ITAC in plasma.

As for `CCS(=O)(=O)CCN(C(=O)Cc1ccc(F)c(C(F)(F)F)c1)[C@H](C)c1nc2ncccc2c(=O)n1-c1ccc(C#N)cc1`, the 50% inhibitory concentration (IC50) worked out at 115 nM.
